Results on one compound are retold here after US8497349B2, “Use of multivalent synthetic ligands of surface nucleolin for treating cancer or inflammation” (Centre National de la Recherche Scientifique (CNRS), priority 2006, dated 2013).

For one assay, the system named is NIH-3T3 cells. Put plainly: Proliferation of NIH-3T3 cells stimulated by FGF-2 (tritiated thymidine incorporation). As to conditions: 0.5 μM; 0.2 nM FGF-2. It is filed as cell-based. On the procedure:
FIG. 5. Effect of HB-19 on the proliferation of NIH-3T3 cells stimulated by 0.2 nM FGF-2 (A) or by 5% foetal calf serum (B). Quiescent NIH-3T3 cells are stimulated by FGF-2 or by 5% serum in the presence or not of HB19 at the concentrations indicated. After 24 hours of incubation, cell proliferation was determined by measuring the incorporation of tritiated thymidine. The results are given as a percentage with respect to the control stimulated by HARP (100%). MSD (threshold), (**p<0.01 and ***p<0.001).
In order to study whether the effect of HB-19 on the inhibition of cell proliferation is specific for a given growth factor such as HARP, two series of experiments were carried out which consisted in studying the effect of HB-19 on NIH 3T3 cells stimulated by: […]
Background: Dividing cells build labelled thymidine or BrdU into new DNA.

The subject of assay [1] is MDA-MB-231 human mammary carcinoma line. Put plainly: Anchorage-independent growth of MDA-MB-231 on wet agar (colony count). It is filed as cell-based. The conditions noted are these: 1 μM of HB-19; 10 days. On the procedure: FIG. 6. Effect of anti-nucleolin (anti Nu) (A), isotype IgG (B) and HB-19 (C) on MDA-MB231 growth on wet agar. MDA-MB231 cells are cultured in a culture medium with 0.35% agar on a 0.6% agar matrix. After 10 days in culture, colonies with a diameter greater than 50 μm were counted. 5 areas per well and each point in triplicate, (**p<0.01).
In parallel to these studies on cell proliferation, the role of nucleolin on anchorage-independent growth, the phenotype characteristic of transformed cells, was tested in a growth model on wet agar using the human mammary carcinoma line, MDA-MB-231, as well as a mouse melanoma line, B16-BL6.
In these experiments, cells were cultured on agar gel in the presence or absence of varying concentrations of the control anti-nucleolin antibodies, control immunoglobulins or compound HB-19. After 10 days of incubation at 37° C., the number of colonies present in each culture plate was counted.

In the next assay the test system is HUVEC cells. Put plainly: Differentiation of HUVEC cells in three-dimensional collagen gel (tubular network structures). As to conditions: 1 μM; HARP 1 nM, VEGF 1 nM, FGF-2 3 nM; 4 days. It is filed as cell-based, human. On the procedure: FIG. 8. Effect of HB-19 on angiogenesis. A. Effect of HB19 tested on in vitro proliferation of HUVEC cells. 20000 HUVEC cells were cultured in wells and compound HB19 was added in different concentrations on each day. Cells were counted after 6 days of treatment. B. Effect of HB19 (1 μM) on the differentiation of HUVEC cells in a three-dimensional collagen gel cultured in the presence of HARP angiogenic factors (1 nM); VEGF (1 nM) and FGF-2 (3 nM) were also tested. After 4 days, tubular network structures were counted. The results are presented in arbitrary units. C. Effect of HB-19 on angiogenesis triggered HARP or FGF-2 in an in vivo angiogenesis model (/matrigel <<plug assay>>). Matrigel (300 μl) containing the indicated molecules is injected subcutaneously into mice. Mice were sacrificed after one week and matrigel was removed. 8 μm thick cuts were performed. After staining, the number of endothelial cells is estimated by image analysis. For each matrigel, 5 cuts and 4 mice were analysed per experimental point.
The effect of the presence of HB19 (1 μM) on the differentiation of HUVEC cells in a three-dimensional collagen gel cultured in the presence of HARP angiogens (1 nM), VEGF (1 nM) and FGF-2 (3 nM) were also tested. After 4 days, tubular network structures were counted.

For the next assay, the system named is ICAM-1. Put plainly: ICAM-1 expression by HUVEC cells stimulated by LPS (ELISA). The conditions noted are these: 5 μM of HB-19; LPS 100 ng/ml; 20 hours. It is filed as cell-based, human. On the procedure:
FIG. 21. Inhibition by HB-19 of IL-8 production and ICAM-1 expression by human umbilical vascular endothelial cells (HUVEC) stimulated by LPS. HUVEC cells at 10 000 cells/cm^2 were cultured in 96-well plates in EBM-2 medium containing 2% foetal calf serum. Cells in the absence or presence of 5 μM of HB-19 were stimulated with Escherichia coli serotype 055:B5 at 100 ng/ml. Cell cultures were incubated at 37° C. in an incubator with 5% CO2 for 20 hours and IL-8 and ICAM-1 protein levels were measured by ELISA. HUVEC cells in the presence or absence of 5 μM of HB-19 were used as the control for base levels.
HUVEC cells at a concentration of 10 000 cells/cm^2 were cultured in 96-well plates in EBM-2 medium containing 2% foetal calf serum. Cells in the absence or presence of 5 μM of HB-19 were stimulated by LPS from Escherichia coli serotype 055:B5 at 100 ng/ml. Cell cultures were incubated at 37° C. in an incubator with 5% CO2 for 20 hours. Levels of IL-8 and ICAM-1 were measured by ELISA. HUVEC cells in the absence or presence of 5 μm of HB-19 were used as a control to show the base level.
Background: In an ELISA, binding on a coated surface is turned into a signal by an enzyme label.

On to `CCCC[C@H](NC(=O)[C@H](CCCCNC(=O)[C@H](CCCNC(=N)N)NC(=O)[C@@H]1CCCN1C[C@@H](N)CCCCN)NC(=O)[C@H](CCC(=O)O)NC(=O)[C@H](CCCCNC(=O)[C@H](CCCNC(=N)N)NC(=O)[C@@H]1CCCN1C[C@@H](N)CCCCN)NC(=O)[C@@H]1CCCN1C(=O)CNC(=O)[C@H](CCCCNC(=O)[C@H](CCCNC(=N)N)NC(=O)[C@@H]1CCCN1C[C@@H](N)CCCCN)NC(=O)[C@H](CCCCN)NC(=O)[C@H](CCCCNC(=O)[C@H](CCCNC(=N)N)NC(=O)[C@@H]1CCCN1C[C@@H](N)CCCCN)NC(=O)[C@H](CCCNC(=N)N)NC(=O)[C@@H]1CCCN1C[C@@H](N)CCCCN)C(N)=O` [HB19, 5[Kpsi(CH2N)PR]-TASP], for which the “inhibition of proliferation of cells stimulated by FGF-2” value in the assay with NIH-3T3 cells is recorded as “capable of inhibiting”. Further, the “decrease in the number of colonies” value in assay [1] came out at 59%. In addition, the “effect on differentiation of HUVEC cells in collagen gel” value with HUVEC cells is on record as “inhibits the differentiation”. Moreover, the “degree of inhibition of ICAM-1 production” value with ICAM-1 was “around 50%”.
